Test results: patent publication US20250248980A1, “IMMUNE MODULATORY AGENTS” (PRESIDENT AND FELLOWS OF HARVARD COLLEGE, priority 2022, published 2025)

Biological target: TNF-a receptor (TNF-R1 reporter cells) (Homo sapiens, UniProt P19438)
Test: TNF-a-receptor GFP reporter cell screen
Settings: reducing TNF-a-receptor reporter activities; maximal effect at high compound concentrations

Row | Structure (SMILES) | Emax [%]
1 | COc1ccc(C(C)C)cc1S(=O)(=O)NCCNc1ccncc1C | 29
2 | Cc1cccnc1NC(=O)CCN(C)CCc1nc2cc(F)ccc2[nH]1 | 51
